The data set deals with T1, human P‐gp (ABCB1, MDR1) (Homo sapiens, UniProt P08183).
T1 construct: host or cells: MDCKII
Nature of the data set: Transepithelial transport of digoxin (±TCMCB07) in MDCKII/MDR1 cells. In kind it is in vitro ADME. Conditions: MDCKII/MDR1, 500 μM TCMCB07; negative = efflux ratio increased. The protocol:
Cells were then washed three times, each with 0.5 mL pre‐warmed HBSS buffer. For transepithelial transport in the A to B direction, 0.3 mL of drug‐containing buffer pH 7.4 (HBSS, 25 mM HEPES, 0.5% DMSO, 38 nM [^3H]digoxin or 21 nM [^3H]rosuvastatin, and 1.75 μM [^14C]mannitol) was added to the apical chamber, and 1.0 mL of blank buffer (i.e. no drug) was added to the basolateral chamber. For transepithelial transport in the B to A direction, 1.0 mL of drug‐containing buffer pH 7.4 (HBSS, 25 mM HEPES, 0.5% DMSO, 38 nM [^3H]digoxin or [^3H]rosuvastatin, and 1.75 μM [^14C]mannitol) was added to the basolateral chamber, and 0.3 mL of blank buffer (i.e. no drug) was added to the apical chamber. The cells were then incubated for various times up to 60 min. […]
The permeability of digoxin and rosuvastatin (prototypical substrates for MDR1 and BCRP, respectively) was determined by the following ^18 : (4) Papp=CR·VR/CD^o·A·∆Δt, where Papp is the apparent permeability, CR is the concentration of substrate in the receiver chamber, CD^o is the concentration of substrate in the donor chamber at time zero, VR is the volume of buffer in the receiver chamber, A is the surface area of the insert filter membrane, and ∆t is the time over which permeability is measured. […] The % change in digoxin ER, due to TCMCB07, can then be quantified as: (6) %ChangeER=100·ERDig−ERDig+T/ERDig=100·1−ERDig+T/ERDig.

Amino acid sequences for entries named in this document (tags omitted).
UniProt P08183, whole entry: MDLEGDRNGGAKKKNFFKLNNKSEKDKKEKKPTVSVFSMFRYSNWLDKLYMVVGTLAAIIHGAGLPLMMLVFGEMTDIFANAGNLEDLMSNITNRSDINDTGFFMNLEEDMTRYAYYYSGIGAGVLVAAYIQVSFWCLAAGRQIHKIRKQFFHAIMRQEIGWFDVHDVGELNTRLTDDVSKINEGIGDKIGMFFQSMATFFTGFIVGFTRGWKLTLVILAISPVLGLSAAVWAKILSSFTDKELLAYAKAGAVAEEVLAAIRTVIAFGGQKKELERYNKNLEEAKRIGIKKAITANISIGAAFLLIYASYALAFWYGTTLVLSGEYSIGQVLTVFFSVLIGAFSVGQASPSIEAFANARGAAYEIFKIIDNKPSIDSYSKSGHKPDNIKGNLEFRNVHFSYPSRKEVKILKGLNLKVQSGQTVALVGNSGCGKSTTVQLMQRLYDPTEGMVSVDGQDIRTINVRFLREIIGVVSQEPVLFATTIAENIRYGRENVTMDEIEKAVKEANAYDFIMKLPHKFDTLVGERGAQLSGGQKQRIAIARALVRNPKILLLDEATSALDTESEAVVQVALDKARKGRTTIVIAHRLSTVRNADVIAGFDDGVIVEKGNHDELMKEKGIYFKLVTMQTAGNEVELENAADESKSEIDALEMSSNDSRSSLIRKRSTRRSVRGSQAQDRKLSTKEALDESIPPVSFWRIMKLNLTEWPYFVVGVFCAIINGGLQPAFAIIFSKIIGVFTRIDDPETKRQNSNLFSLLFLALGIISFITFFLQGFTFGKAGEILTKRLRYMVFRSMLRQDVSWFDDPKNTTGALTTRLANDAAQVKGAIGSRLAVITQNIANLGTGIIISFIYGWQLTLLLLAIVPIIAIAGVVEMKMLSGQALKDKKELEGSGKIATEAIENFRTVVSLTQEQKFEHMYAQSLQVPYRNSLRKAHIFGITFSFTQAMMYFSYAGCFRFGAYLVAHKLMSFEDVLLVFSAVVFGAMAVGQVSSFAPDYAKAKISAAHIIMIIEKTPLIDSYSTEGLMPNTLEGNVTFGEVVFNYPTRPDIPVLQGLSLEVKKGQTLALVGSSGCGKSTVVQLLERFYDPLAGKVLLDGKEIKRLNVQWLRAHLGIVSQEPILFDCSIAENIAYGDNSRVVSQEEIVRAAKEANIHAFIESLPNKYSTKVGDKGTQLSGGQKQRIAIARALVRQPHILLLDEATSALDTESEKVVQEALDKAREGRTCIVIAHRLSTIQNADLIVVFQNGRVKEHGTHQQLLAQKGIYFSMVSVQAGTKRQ

Results on one compound are retold here after article PMC7749613, “Characterization of the cellular transport mechanisms for the anti‐cachexia candidate compound TCMCB07” (Journal of Cachexia, Sarcopenia and Muscle, 2020).

Turning to `CCCC[C@H](NC(C)=O)C(=O)N[C@H]1CC(=O)NCCCC[C@@H](C(=O)N[C@@H](C(=O)N2CCC[C@@H]2C(N)=O)C(C)C)NC(=O)[C@H](Cc2c[nH]c3ccccc23)NC(=O)[C@H](CCCN=C(N)N)NC(=O)[C@@H](Cc2ccc3ccccc3c2)NC(=O)[C@@H]2CCCN2C1=O` [TCMCB07, Ac‐Nle‐c[Asp‐Pro‐dNal2′‐Arg‐Trp‐Lys]‐dVal‐dPro‐NH2], the “% Change ER of digoxin, 100·(1−ERDig+T/ERDig)” value is recorded as −152%.
